US11066414B2, “Cot modulators and methods of use thereof” (Gilead Sciences, Inc., priority 2015, dated 2021)

Chains of the proteins cited; added tags and fusions are not shown. Residues count along the entry.
UniProt P41279, 30-397: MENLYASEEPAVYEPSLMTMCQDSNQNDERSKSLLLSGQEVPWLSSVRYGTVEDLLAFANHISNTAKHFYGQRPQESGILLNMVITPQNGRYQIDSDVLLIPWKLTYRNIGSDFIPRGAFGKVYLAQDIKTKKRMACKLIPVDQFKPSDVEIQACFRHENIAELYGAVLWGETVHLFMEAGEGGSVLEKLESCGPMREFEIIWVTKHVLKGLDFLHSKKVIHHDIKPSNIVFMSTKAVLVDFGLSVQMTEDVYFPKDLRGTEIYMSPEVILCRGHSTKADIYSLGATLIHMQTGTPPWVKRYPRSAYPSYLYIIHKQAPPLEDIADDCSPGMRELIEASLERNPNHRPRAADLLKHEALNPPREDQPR

Key:
TNFα = experiment: Cot Monocyte TNFα Cell Based Assay
Human Cot = Human Cot (Homo sapiens (Human), UniProt P41279); experiment: High Throughput Cot Biochemical Assay
[1] = Homo sapiens, Monocyte, read-out: EC50 TNF, LPS-stimulated human monocytes, TNFα
[2] = IC50 HTRF, Cot HTRF (TR-FRET) biochemical assay
[3] = Homo sapiens, Monocyte, read-out: EC50 TNF, LPS-stimulated human monocytes, TNFα TR-FRET

Compound | EC50 (TNFα; [3]) | further results
N#Cc1cnc2c(Cl)cc(N[C@@H](c3cscn3)c3cn(CCN4CCOCC4)nn3)cc2c1Nc1ccc(F)c(Cl)c1 [Example 352, (S)-8-chloro-4-((3-chloro-4-fluorophenyl)amino)-6-(((1-(2-morpholinoethyl)-1H-1,2,3-triazol-4-yl)(thiazol-4-yl)methyl)amino)-quinoline-3-carbonitrile] |  | EC50 (TNFα; [1]): 565 nM; IC50 (Human Cot; [2]): 12 nM
Cc1n[nH]c2cccc([C@H](Nc3cc(Cl)c4ncc(C#N)c(NCC(C)(C)C)c4c3)c3cn(C4(C(F)(F)F)CC4)nn3)c12 [Example 524, (S)-8-chloro-6-(((3-methyl-1H-indazol-4-yl)(1-(1-(trifluoromethyl)cyclopropyl)-1H-1,2,3-triazol-4-yl)methyl)amino)-4-(neopentylamino)quinoline-3-carbonitrile] |  | EC50 (TNFα; [1]): 77 nM; IC50 (Human Cot; [2]): 12 nM
Cc1nc(F)ccc1[C@H](Nc1cc(C#N)c2ncc(C#N)c(NCC(C)(C)C)c2c1)c1cn(C(CF)CF)nn1 [Example 869, (S)-6-(((1-(1,3-difluoropropan-2-yl)-1H-1,2,3-triazol-4-yl)(6-fluoro-2-methylpyridin-3-yl)methyl)amino)-4-(neopentylamino)quinoline-3,8-dicarbonitrile] | 37 nM | 
Cn1ccc2c([C@H](Nc3cc(C#N)c4ncc(C#N)c(NCC(C)(C)C)c4c3)c3cn(C4(C(F)F)CC4)nn3)ccnc21 [Example 873, (S)-6-(((1-(1-(difluoromethyl)cyclopropyl)-1H-1,2,3-triazol-4-yl)(1-methyl-1H-pyrrolo[2,3-b]pyridin-4-yl)methyl)amino)-4-(neopentylamino)quinoline-3,8-dicarbonitrile] | 97 nM | 
Cc1nc(F)ccc1[C@H](Nc1cc(C#N)c2ncc(C#N)c(NCC(C)(C)C)c2c1)c1nnn(C)c1F [Example 906, (S)-6-(((5-fluoro-1-methyl-1H-1,2,3-triazol-4-yl)(6-fluoro-2-methylpyridin-3-yl)methyl)amino)-4-(neopentylamino)quinoline-3,8-dicarbonitrile] | 39 nM | 
COc1nccc2c([C@H](Nc3cc(Cl)c4ncc(C#N)c(NCC(C)(C)C(F)(F)F)c4c3)c3cn(C4(C5CC5)CC4)nn3)cccc12 [Example 926, (S)-6-(((4-(1-(1,1-bi(cyclopropan)]-1-yl)-1H-1,2,3-triazol-4-yl)(1-methoxylsoquinolin-5-yl)methyl)amino)-8-chloro-4-((3,3,3-trifluoro-2,2-dimethylpropyl)amino)quinoline-3-carbonitrile] |  | EC50 (TNFα; read-out: EC50 TNF, LPS-stimulated human monocytes, TNFα TR-FRET): 174 nM; IC50 (Human Cot; read-out: IC50 HTRF, Cot HTRF (TR-FRET KinEASE) biochemical assay, 400 μM ATP): 13 nM
CC(C)(C)CNc1c(C#N)cnc2c(Cl)cc(N[C@H](c3cn(C4(C(F)(F)F)CC4)nn3)c3cccc4ncc(F)cc34)cc12 [Example 937, (S)-8-chloro-6-(((3-fluoroquinolin-5-yl)(1-(1-(trifluoromethyl)cyclopropyl)-1H-1,2,3-triazol-4-yl)methyl)amino)-4-(neopentylamino)quinoline-3-carbonitrile] | 277 nM | IC50 (Human Cot; IC50 HTRF, Cot HTRF (TR-FRET KinEASE) biochemical assay, 400 μM ATP): 23 nM
Cc1nc(F)ccc1[C@H](Nc1cc(Cl)c2ncc(C#N)c(NCC(C)(C)C)c2c1)c1nnn(C2(C)CC2)c1F [Example 947, (S)-8-chloro-6-(((5-fluoro-1-(1-methylcyclopropyl)-1H-1,2,3-triazol-4-yl)(6-fluoro-2-methyl-pyridin-3-yl)methyl)amino)-4-(neopentylamino)quinoline-3-carbonitrile] | 39 nM | 
Cc1nc(F)ccc1[C@H](Nc1cc(Cl)c2ncc(C#N)c(NCC(C)(C)C)c2c1)c1nnn(C23CC(C2)C3)c1F [Example 951, (S)-6-(((1-(bicyclo[1.1.1]pentan-1-yl)-5-fluoro-1H-1,2,3-triazol-4-yl)(6-fluoro-2-methylpyridin-3-yl)methyl)amino)-8-chloro-4-(neopentylamino)quinoline-3-carbonitrile] | 61 nM | 
Cc1nc(F)ccc1[C@H](Nc1cc(Cl)c2ncc(C#N)c(NCC(C)(C)C(F)(F)F)c2c1)c1nnn(C2CC2)c1F [Example 958, (S)-8-chloro-6-(((1-cyclopropyl-5-fluoro-1H-1,2,3-triazol-4-yl)(6-fluoro-2-methylpyridin-3-yl)methyl)amino)-4-((3,3,3-trifluoro-2,2-dimethylpropyl)amino)quinoline-3-carbonitrile] | 56 nM | 

Like-named read-outs stand apart in the source and are kept apart here.
